Tested on: P. berghei ANKA
Assay: P. berghei-infected mouse model of malaria
Conditions: 20 and 50 mg/kg i.p. daily for five days

Structure (SMILES): CC(C)(C)C(=O)OCOP(=O)(/C=C/CN(O)C=O)OCOC(=O)C(C)(C)C [Compound 18a, [({[(2,2-dimethylpropanoyl)oxy]methoxy}[(1E)-3-(N-hydroxyformamido)prop-1-en-1-yl]phosphoryl)oxy]methyl 2,2-dimethylpropanoate]
- tolerability in mice: no adverse effects were observed
